Assay results reported in PubChem BioAssay AID686940 (The Scripps Research Institute Molecular Screening Center, 2013).
Only a part is listed here, and it is no random draw. Active and inactive are the calls of the source.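 The calls were made as follows: active = inhibition above a per-plate cutoff, mean inhibition of test wells between control levels plus 3 SD (cut at about 38% in these data); inactive = the rest.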

By UniProt entry, the sequences of proteins in these tests, tags left out. Where a name states a change or a piece, a line headed by the entry shows the natural chain unless it says otherwise.
UniProt P24468: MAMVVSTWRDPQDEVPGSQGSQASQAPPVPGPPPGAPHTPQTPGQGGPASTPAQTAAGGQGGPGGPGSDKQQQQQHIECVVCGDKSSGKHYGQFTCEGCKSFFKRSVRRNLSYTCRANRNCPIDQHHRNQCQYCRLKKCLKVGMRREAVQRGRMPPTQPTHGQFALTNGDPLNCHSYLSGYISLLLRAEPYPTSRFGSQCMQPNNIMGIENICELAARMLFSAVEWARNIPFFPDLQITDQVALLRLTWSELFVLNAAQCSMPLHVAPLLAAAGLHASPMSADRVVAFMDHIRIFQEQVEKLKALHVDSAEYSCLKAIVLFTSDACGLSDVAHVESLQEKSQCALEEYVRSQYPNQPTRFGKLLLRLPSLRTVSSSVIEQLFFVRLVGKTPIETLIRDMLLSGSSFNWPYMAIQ

The compounds below were run against COUP transcription factor 2 (Homo sapiens) (UniProt P24468) (assay: COUP-TFII reporter suppression in human cells – cell-based, luciferase reporter, HEK293T, luminescence, primary screen (AID 686940;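 also: cells cotransfected with COUP-TFII expression vector driving the NGFI-A reporter; 0% = median of COUP-TF2 test wells and 100% = reporter-only cells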)). Conditions: HEK293T NGFI-A luciferase reporter, at 8.6 µM, hits give high values.
`CC(C)C(=O)NC(Sc1ccccc1)C(Cl)(Cl)Cl` (stereo unspecified) was tested, and the inhibition was inactive: 11%. For `O=P(Nc1nccs1)(c1ccccc1)c1ccccc1`, the inhibition was inactive: -1.94%. With `c1nnnn1CCn1cnnn1` the inhibition was inactive: 15.6%. `O=[As](O)(c1ccccc1)c1ccc(O)cc1` was tested, and the inhibition was inactive: -19.3%. For `O=[N+]([O-])c1ncn(CCn2cnc([N+](=O)[O-])n2)n1`, the inhibition was inactive: -5.17%. With `CC(=O)NC(SC(=S)N(C)C)C(Cl)(Cl)Cl` (stereo unspecified) the inhibition was inactive: 19.2%. With `O=C(OC1CN2CCC1CC2)c1cccc(Cl)c1` (stereo unspecified) the inhibition was inactive: 1.38%. `Nc1ccc([As](=O)(O)c2ccc([N+](=O)[O-])cc2)cc1` was tested, and the inhibition was inactive: -15.9%. With `C(Cc1nn[nH]n1)Cc1nn[nH]n1` the inhibition was inactive: -7.71%. In the case of `C/C(N)=N\P(=O)(OCc1ccccc1)OCc1ccccc1`, the inhibition was inactive: 9.89%. In the case of `O=P(Nc1ccccn1)(c1ccc(Br)cc1)c1ccc(Br)cc1`, the inhibition was inactive: -3.51%. With `CN(C)C1(CNC(=O)c2ccc(Cl)c(S(N)(=O)=O)c2)CCCCC1` the inhibition was inactive: 32.5%. With `Nc1ccc(CCCCOc2ccccc2)cc1` the inhibition was inactive: 2.88%. `COc1ccc(N)c([N+](=O)[O-])c1[N+](=O)[O-]` was tested, and the inhibition was inactive: -9.87%. `C[C@H]1OP(=O)(Oc2ccccc2)[C@H](O)[C@H](O)[C@H]1N=[N+]=[N-]` (stereo partly specified) was tested, and the inhibition was inactive: -7.13%. For `O=P(Nc1nc2ccccc2s1)(c1ccccc1)c1ccccc1`, the inhibition was inactive: 10.8%. `CCC(=O)N1C2C3N(C(=O)CC)C1C1N(C(=O)CC)C(C(N1C(=O)CC)N3C(=O)CC)N2C(=O)CC` was tested, and the inhibition was inactive: 8.86%. In the case of `O=C(OC1CN2CCC1CC2)c1ccccc1` (stereo unspecified), the inhibition was inactive: 19.2%. `Cc1ccc(OP(=O)(Nc2ccccn2)Oc2ccc(C)cc2)cc1` was tested, and the inhibition was inactive: 5.63%. With `CC(=O)NC(SC(=S)N(CC(C)C)CC(C)C)C(Cl)(Cl)Cl` (stereo unspecified) the inhibition was inactive: 1.22%. For `COC(=O)c1cc2c(s1)N=C(c1ccccc1)N(C)P2(=O)N1CCOCC1` (stereo unspecified), the inhibition was inactive: 9.84%. In the case of `CN(C)C(=O)Oc1noc2ccccc12`, the inhibition was inactive: -11.8%. For `O=c1c2cc([N+](=O)[O-])ccc2[nH]c2c([N+](=O)[O-])cc([N+](=O)[O-])cc12`, the inhibition was inactive: 5.66%. With `Cc1ccccc1OP(=O)(Nc1ccccn1)Oc1ccccc1C` the inhibition was inactive: -12.6%. In the case of `CC(NC(=O)COC(=O)C(O)(c1ccccc1)c1ccccc1)c1ccccc1` (stereo unspecified), the inhibition was inactive: -16.3%. For `Cc1ccc(NP(=O)(Oc2cccc(C)c2)Oc2cccc(C)c2)nc1`, the inhibition was inactive: -13.8%. In the case of `c1ccc(-c2nn[nH]n2)c(-c2nn[nH]n2)c1`, the inhibition was inactive: -23%. For `CCNC(=S)/N=C(\N)N[N+](=O)[O-]`, the inhibition was inactive: -10.6%. For `O=C(NC1CCS(=O)(=O)C1)NP(=S)(Oc1ccccc1)Oc1ccccc1` (stereo unspecified), the inhibition was inactive: -9.39%. `O=P1(N(CCCl)CCCl)OCCC2CCCCN21` (stereo unspecified) was tested, and the inhibition was inactive: -4.65%. In the case of `C[C@@H]1C=CCP(=O)(Oc2ccccc2)O1` (stereo partly specified), the inhibition was inactive: 10.5%. With `C[C@H]1OP(=O)(Oc2ccccc2)C[C@@H]2O[C@@H]21` (stereo partly specified) the inhibition was inactive: 8.51%. With `Cc1ccccc1CN(C)C(=O)COC(=O)C(O)(c1ccccc1)c1ccccc1` the inhibition was inactive: -9.12%. For `COC(=O)C1(C)COP(=O)(NCc2ccccc2)OC1` (stereo unspecified), the inhibition was inactive: 2.31%. `N#C/C(=C\c1ccc(N(CCBr)CCBr)cc1)C(N)=O` was tested, and the inhibition was inactive: -13.9%. With `CC(=O)c1ccc(N2CC2c2ccncc2)cc1` (stereo unspecified) the inhibition was inactive: 8.95%. For `CC(=O)Nc1ccc(Oc2c([N+](=O)[O-])cc([N+](=O)[O-])cc2[N+](=O)[O-])cc1`, the inhibition was inactive: 9.15%. `CC(=O)Nc1ccc([As](=O)(O)O)c(O)c1` was tested, and the inhibition was inactive: 14.1%. With `CCOc1ccc(C2=NCC(CBr)S2)cc1` (stereo unspecified) the inhibition was inactive: 5.81%. For `O=P1(Nc2nc3ccc(Cl)cc3s2)COc2ccccc2O1` (stereo unspecified), the inhibition was inactive: 7.97%. With `CC(C)(C)C(=O)NC(Sc1ccccc1)C(Cl)(Cl)Cl` (stereo unspecified) the inhibition was inactive: 5.73%. With `CCc1cc(O)c([N+](=O)[O-])c(C)c1[N+](=O)[O-]` the inhibition was inactive: 8.49%. With `O=C(NC(Sc1ccncn1)C(Cl)(Cl)Cl)c1ccccc1` (stereo unspecified) the inhibition was inactive: -1.58%. `Oc1ccccc1CNc1ccccn1` was tested, and the inhibition was inactive: 4.67%. With `CC(C)CC(=O)NC(Sc1ccc(Cl)cc1)C(Cl)(Cl)Cl` (stereo unspecified) the inhibition was inactive: 5.72%. In the case of `Nc1cc(N)c2nonc2c1[N+](=O)[O-]`, the inhibition was inactive: 16.5%. With `Cc1ccc(N/C(=N/P(=O)(N2CCOCC2)N2CCOCC2)N2CCOCC2)cc1` the inhibition was inactive: 0.66%. For `CN(C(=O)Cc1ccc(Cl)c(Cl)c1)[C@H]1CCCC[C@H]1N1CCCC1`, the inhibition was inactive: -11%. For `NC(=O)c1cc([N+](=O)[O-])cc([N+](=O)[O-])c1N`, the inhibition was inactive: -12.4%. For `Clc1ccc(Cl)c(NC2=NCC(CBr)S2)c1` (stereo unspecified), the inhibition was inactive: -5.74%. `CN1CCCC(OC(=O)C(c2ccccc2)c2ccccc2)C1` (stereo unspecified) was tested, and the inhibition was inactive: -0.16%. `Cc1ccc(OP(=O)(Nc2nccs2)Oc2ccc(C)cc2)cc1` was tested, and the inhibition was inactive: 15.8%. With `COc1ccccc1OP(=O)(Nc1ccc(C)cn1)Oc1ccccc1OC` the inhibition was inactive: -1.8%. `Nc1cccc2ccc([As](=O)(O)O)cc12` was tested, and the inhibition was inactive: 8.86%. With `CCN(N=Nc1nonc1N)c1nonc1N` the inhibition was inactive: 15.3%. In the case of `CN(C(=O)Cc1ccccc1)C1CC[C@@]2(CCCO2)C[C@@H]1N1CCCC1` (stereo partly specified), the inhibition was inactive: 6.46%. For `CN(C)P(=O)(N(C)C)n1c(Nc2ccccc2)nnc1-c1ccccc1`, the inhibition was inactive: -8.33%. With `O=P(Nc1nc2ccc(Cl)cc2s1)(c1ccccc1)c1ccccc1` the inhibition was inactive: -3.26%. For `CCCC1OP(N)(=O)OCC1CC` (stereo unspecified), the inhibition was inactive: -4.54%. With `O=C(O)c1ccccc1[As](=O)(O)O` the inhibition was inactive: 0.3%. For `CC(=O)Nc1ccc([As](=O)(O)O)cc1`, the inhibition was inactive: -12.1%. For `CCn1c(=O)n(C2CCN(CC3CCCCCCC3)C[C@H]2CO)c2ccccc21` (stereo partly specified), the inhibition was inactive: 8.55%. For `Cc1ccc(NP(=O)(Oc2ccccc2F)Oc2ccccc2F)nc1`, the inhibition was inactive: 4.8%. With `CN(C(=O)Cc1ccc(Cl)c(Cl)c1)[C@H]1CCCC[C@@H]1N1CCCC1` the inhibition was inactive: 2.93%. With `CCOP(=O)(Nc1ccccc1)OCC` the inhibition was inactive: 14.5%. `Cc1cc(SC(NC(=O)c2ccc(F)cc2)C(Cl)(Cl)Cl)ncn1` (stereo unspecified) was tested, and the inhibition was inactive: 9.46%.
